Consider 1 compound from patent publication US20130040903A1, “PHARMACEUTICAL COMPOSITIONS FOR TREATING DEPRESSION AND ANXIETY” (priority 2007, published 2013).

The subject of this experiment is 5-HT. The experiment is described as follows: Unpredictable long-term stimulus model: 5-HT content in the rat cerebral cortex (HPLC-electrochemical test). Type of experiment: in vivo. Particulars: Experiment 9, 2 mg/kg/d 24 days. How it is done: 9.4.1 Group division and administration of drug: The rats are grouped randomly into 6 groups. 1. False therapy group; 2. model group (control); 3. high dose of Embodiment 4 (60 mg/kg/d); 4. middle dose of Embodiment 4 (30 mg/kg/d); 5. low dose of Embodiment 4 (15 mg/kg/d); and 6. Paroxetine (2 mg/kg/d). The test drugs and the positive drug are prepared with 0.5% of CMC-Na for feeding into the stomach once every day.
Unpredictable long-term stimulus model: The rats in the control group eat and drink normally, and there is no stimulus performed. In other 5 groups, one rat is fed in each cage, and the rat is subject to the 24-day unpredictable stress/stimulus, including 24-hour abstinence for 3 times, 24-hour without drinking for 3 times, 24-hour wet bedding for 3 times (200 ml of water is added in the rat cage), overnight illumination for 3 times, swimming at 4° C. for 5 minutes for 3 times, heating at 45° C. in the oven for 5 minutes for 3 times, clipping the rat tail for 1 minute for 3 times, and 30-minute high-speed horizontal shake for 3 times. One stimulus is performed randomly every day and a total of 24 days. Each stimulus cannot be performed continuously. The pharmaceutical is fed into the rat's stomach once every day and a total of 24 days.
9.5.6 HPLC-electrochemical test: The amounts of norepinephrine and 5-hydrotryptamine in the rat cerebral cortex are measured.

With `Fc1ccc([C@@H]2CCNC[C@H]2COc2ccc3c(c2)OCO3)cc1` [Paroxetine], the 5-HT is 227.0637 ± 46.54 nmol/L brain tissue extracts.
